{
  "source": "patent US11890324B2",
  "about": "“Compounds for use in inducing myocardial perfusion recovery” (Epoqe Pharma ApS, priority 2018, dated 2024)",
  "origin": "cited, not measured here",
  "conditions": "in vivo; cited from earlier work",
  "data": [
    {"substance": "N-alpha-[2-(2-{2-[(S)-4-Carboxy-4-(17-carboxyheptadecanoylamino)-butyrylamino]-ethoxy}ethoxy)acetyl](Ser1]alpha-human CGRP peptide [Compound I]", "values": [
      {"measurement": "Half-life as compared to CGRP (in words)", "value": "increased"}
    ]}
  ]
}
